# Source: patent EP4831173A1, “TYK2 INHIBITOR AND USE THEROF” (dated 2026)
# Protein sequences, listed by entry. Tags and fused reporters are not part of them. Residues count along the entry.
# UniProt P29597, 589-875 limits assumed: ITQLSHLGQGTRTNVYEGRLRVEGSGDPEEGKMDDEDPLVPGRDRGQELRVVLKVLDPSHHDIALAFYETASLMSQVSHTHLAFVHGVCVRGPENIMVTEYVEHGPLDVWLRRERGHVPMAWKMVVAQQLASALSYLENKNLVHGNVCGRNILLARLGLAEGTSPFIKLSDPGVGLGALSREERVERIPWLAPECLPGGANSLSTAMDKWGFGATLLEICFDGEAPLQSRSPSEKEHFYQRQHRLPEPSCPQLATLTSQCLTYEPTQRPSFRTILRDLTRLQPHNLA
# UniProt P29597, whole entry: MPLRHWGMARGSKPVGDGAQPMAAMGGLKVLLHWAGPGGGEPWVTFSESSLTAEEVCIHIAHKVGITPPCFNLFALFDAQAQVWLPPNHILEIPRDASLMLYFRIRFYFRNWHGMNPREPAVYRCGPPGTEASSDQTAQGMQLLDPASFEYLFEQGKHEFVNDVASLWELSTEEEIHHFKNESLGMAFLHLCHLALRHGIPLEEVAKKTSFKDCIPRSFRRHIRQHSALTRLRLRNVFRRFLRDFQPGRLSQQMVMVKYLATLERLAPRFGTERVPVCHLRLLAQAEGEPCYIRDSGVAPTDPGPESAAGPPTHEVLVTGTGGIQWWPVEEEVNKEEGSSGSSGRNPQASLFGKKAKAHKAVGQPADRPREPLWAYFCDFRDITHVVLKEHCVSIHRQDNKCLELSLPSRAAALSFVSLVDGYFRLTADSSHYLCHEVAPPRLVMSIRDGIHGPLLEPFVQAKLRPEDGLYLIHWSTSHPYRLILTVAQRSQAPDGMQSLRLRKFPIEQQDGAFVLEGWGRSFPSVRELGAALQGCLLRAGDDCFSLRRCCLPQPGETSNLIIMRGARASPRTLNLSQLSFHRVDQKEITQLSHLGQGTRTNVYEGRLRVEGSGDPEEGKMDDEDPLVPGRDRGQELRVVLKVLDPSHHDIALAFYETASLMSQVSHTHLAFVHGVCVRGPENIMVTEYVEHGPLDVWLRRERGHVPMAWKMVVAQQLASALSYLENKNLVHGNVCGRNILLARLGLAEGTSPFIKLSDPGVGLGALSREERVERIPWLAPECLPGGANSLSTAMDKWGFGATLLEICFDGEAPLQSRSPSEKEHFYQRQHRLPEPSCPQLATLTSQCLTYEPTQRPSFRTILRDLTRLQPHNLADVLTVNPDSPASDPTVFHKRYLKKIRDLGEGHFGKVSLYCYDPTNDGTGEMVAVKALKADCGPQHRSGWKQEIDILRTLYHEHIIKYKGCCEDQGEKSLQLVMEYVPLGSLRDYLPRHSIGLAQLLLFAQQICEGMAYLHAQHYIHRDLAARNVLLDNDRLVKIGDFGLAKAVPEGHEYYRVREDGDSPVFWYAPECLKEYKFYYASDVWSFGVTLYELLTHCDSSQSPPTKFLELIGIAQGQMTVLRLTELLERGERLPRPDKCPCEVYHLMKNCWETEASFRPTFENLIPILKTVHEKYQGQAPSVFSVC
# UniProt P23458, whole entry partner: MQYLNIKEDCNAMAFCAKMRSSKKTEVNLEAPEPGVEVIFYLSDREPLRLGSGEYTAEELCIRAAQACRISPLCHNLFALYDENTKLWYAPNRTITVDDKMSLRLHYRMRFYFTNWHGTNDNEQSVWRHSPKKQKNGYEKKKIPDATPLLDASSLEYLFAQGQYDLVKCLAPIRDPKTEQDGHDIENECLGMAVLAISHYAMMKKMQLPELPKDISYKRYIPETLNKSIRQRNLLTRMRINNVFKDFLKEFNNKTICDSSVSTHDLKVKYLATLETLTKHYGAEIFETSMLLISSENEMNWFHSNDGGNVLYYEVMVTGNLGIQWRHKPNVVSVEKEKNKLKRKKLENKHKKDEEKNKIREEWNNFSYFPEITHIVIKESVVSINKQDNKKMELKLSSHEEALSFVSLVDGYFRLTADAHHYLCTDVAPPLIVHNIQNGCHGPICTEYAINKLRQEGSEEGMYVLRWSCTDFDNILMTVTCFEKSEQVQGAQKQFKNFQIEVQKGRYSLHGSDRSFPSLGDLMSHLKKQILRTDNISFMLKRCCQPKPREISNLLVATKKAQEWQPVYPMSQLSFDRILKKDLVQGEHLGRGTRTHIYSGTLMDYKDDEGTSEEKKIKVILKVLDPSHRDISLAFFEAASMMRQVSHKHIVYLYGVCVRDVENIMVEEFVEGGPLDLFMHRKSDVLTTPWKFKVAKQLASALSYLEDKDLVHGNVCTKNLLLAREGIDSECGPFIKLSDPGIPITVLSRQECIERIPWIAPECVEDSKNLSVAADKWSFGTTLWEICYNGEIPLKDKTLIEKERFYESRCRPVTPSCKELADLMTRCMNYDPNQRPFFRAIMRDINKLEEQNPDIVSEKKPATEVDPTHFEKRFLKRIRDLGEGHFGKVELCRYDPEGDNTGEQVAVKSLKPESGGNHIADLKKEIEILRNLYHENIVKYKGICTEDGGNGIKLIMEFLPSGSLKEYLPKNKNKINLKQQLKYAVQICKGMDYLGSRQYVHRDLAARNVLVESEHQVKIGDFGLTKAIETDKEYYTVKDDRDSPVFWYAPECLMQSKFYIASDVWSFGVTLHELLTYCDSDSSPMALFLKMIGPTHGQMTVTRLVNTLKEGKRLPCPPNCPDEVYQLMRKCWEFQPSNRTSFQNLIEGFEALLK
# What was measured:
# TYK2 pseudokinase domain = TYK2 pseudokinase domain (Homo sapiens, UniProt P29597); assay: TYK2 JH2 pseudokinase domain binding affinity, fluorescence polarization (BPS Bioscience inhibitor screening kit); details: read-out: TYK2 JH2 IC50; polarized fluorescence, 25°C, 1 hour
# Procedure: Experimental Example 1: Analysis of domain binding affinity to TYK2 pseudokinase
# In order analyze the binding affinity of a test compound to the TYK2 pseudokinase domain, a polarized fluorescence-based TYK2 JH2 Pseudokinase Domain Inhibitor Screening Assay Kit (BPS bioscience) was used. The evaluation of the compound was performed according to the manufacturer's protocol, and the method thereof is as follows:
# The test compound or control compound (Deucravacitnib) was serially diluted in DMSO, and then diluted 1/10 with distilled water to prepare 10x compound solution. After mixing the compound solution with Probe 1 prepared with a binding reaction buffer (JH2 binding buffer), a reaction was performed at 25°C for 10 minutes. Next, the reaction was initiated by adding a TYK2 pseudokinase domain enzyme prepared with the binding reaction buffer. The reaction was performed in a black 384-well plate at 25 °C for 1 hour. Polarized fluorescence was measured using Synergy neo (BioTek Instruments, Inc.).
# TYK2/JAK1 = TYK2/JAK1 (Homo sapiens, UniProt P29597); assay: TYK2/JAK1 cell activity by IFNα2B stimulation, SEAP reporter in HEK-blue IFNα/β cells; details: HEK-blue IFNα/β cell line, human IFNα2B 1 U/mL, 24 hours, SEAP absorbance at 630 nm
# Procedure: Experimental Example 3: Analysis of TYK2/JAKI cell activity by IFNα2B stimulation
# An inhibition effect of TYK2/JAK1 activity of the test compound was analyzed using HEK-blue IFNα/β cell line (InvivoGen) that secretes SEAP (Secreted embryonic alkaline phosphatase) depending on the degree of cell stimulation. Cell culture and evaluation were performed according to the manufacturer's recommendations, and the method thereof is as follows: Cells cultured in a growth medium (Dulbecco's Modified Eagle Medium, 10% Fetal bovine serum, 1% Penicillin-Streptomycin, 100 ug/mL Normocin, 10 mg/mL Blasticidin, […] Zeocin) were collected and resuspended in a test medium (DMEM, 10% FBS, 1% Penicillin-Streptomycin), and 3.5x10^4 cells (160 uL) were dispensed into each well of a 96-well plate. After culturing for 24 hours in a 37°C CO2 incubator, 20 uL of a test compound or control compound (Deucravacitinib) diluted in the test medium was added, and then incubated at 37°C for 1 hour and 30 minutes. Next, 20 uL of human IFNα2B recombinant protein (PBL assay science) prepared with the test medium was added to each well (final concentration 1 U/mL) and then incubated at 37°C for 24 hours. 20 uL and 180 uL of cell supernatant were mixed with a QUANTI-blue reagent (InvivoGen) and then reacted at 37°C for 20-30 minutes. An absorbance at 630 nm was measured using Synergy neo (BioTek Instruments, Inc.). […] [Table 3] Result of TYK2/JAK1 cell activity by IFNα2B stimulation test
IC50 (TYK2 pseudokinase domain) [nM],IC50 (TYK2/JAK1) [nM],Structure (SMILES)
60,,CC(=O)Nc1cc2c(cn1)c(C)cn2-c1ccc(=O)n(C2(C)CCOC2)n1 (centres unmarked)
46,< 50,CC(=O)Nc1cc2c(-c3cc(N4CC(OC(C)C)C4)c(=O)n([C@@H](C)C(F)(F)F)n3)cn(C)c2cn1
35,50 to 500,CC(=O)Nc1cc2c(-c3cc(OCC(C)C)c(=O)n(C(C)(C)C)n3)cn(C)c2cn1
144,,CCn1cc(-c2cc(OCC(F)F)c(=O)n([C@@H](C)C(F)(F)F)n2)c2cc(NC(=O)NC)ncc21
42,< 50,CCn1cc(-c2cc(N3CC(OC(C)C)C3)c(=O)n([C@@H](C)C(F)(F)F)n2)c2cc(NC(C)=O)ncc21
39,,CC(=O)Nc1cc2c(-c3cc(OCC(C)C)c(=O)n(C(C)C(C)(F)F)n3)cn(C)c2cn1 (centres unmarked)
184,< 50,COC1CN(c2cc(-c3cn(C4CC5(C4)CC(F)(F)C5)c4cnc(NC(C)=O)cc34)nn([C@@H](C)C(F)(F)F)c2=O)C1
31,50 to 500,COCCn1cc(-c2cc(OCC(C)(F)F)c(=O)n([C@@H](C)C(F)(F)F)n2)c2cc(NC(C)=O)ncc21
33,50 to 500,CC(=O)Nc1cc2c(-c3cc(OCC(C)C)c(=O)n(C4(C)CCCC4)n3)cn(C)c2cn1
67,,CC(=O)Nc1cc2c(-c3cc(OCC(C)(F)F)c(=O)n([C@@H](C)C(F)(F)F)n3)cn([C@@H]3CCOC3)c2cn1
21,< 50,CCC1(n2nc(-c3cn(C)c4cnc(NC(C)=O)cc34)cc(OC[C@@H](C)OC)c2=O)CCC1
61,,CC(=O)Nc1cc2c(-c3cc(C4CC4)c(=O)n(C4CC(=O)C4)n3)cn(C3CC(C#N)C3)c2cn1 (centres unmarked)
61,< 50,CC(=O)Nc1cc2c(-c3cc(OCC(F)F)c(=O)n(C(C)C(F)(F)F)n3)cn(C3CC3)c2cn1 (centres unmarked)
50,< 50,CC(=O)Nc1cc2c(-c3cc(OCC(F)(F)F)c(=O)n([C@@H](C)C(F)(F)F)n3)cn(C3CC3)c2cn1
31,50 to 500,CC(=O)Nc1cc2c(-c3cc(OCc4ccccc4)c(=O)n(C(C)C)n3)cn(C)c2cn1
47,< 50,COC1CN(c2cc(-c3cc(C)n4cnc(NC(C)=O)cc34)nn(C3(C)CCOC3)c2=O)C1 (centres unmarked)
18,< 50,CO[C@H](C)COc1cc(-c2cn(C3CC3)c3cnc(NC(C)=O)cc23)nn([C@@H](C)C(F)(F)F)c1=O
45,< 50,CC(=O)Nc1cc2c(-c3cc(OCC(C)(C)F)c(=O)n([C@@H](C)C(F)(F)F)n3)cn(C3CC3)c2cn1
41,< 50,CC(=O)Nc1cc2c(-c3cc(N4CCC5(COC5)C4)c(=O)n(C4(C)CCC4)n3)cn(C3CC3)c2cn1
42,< 50,CC(=O)Nc1cc2c(-c3cc(OCC(C)(F)F)c(=O)n(C(C)C(F)(F)F)n3)cn(C)c2cn1 (centres unmarked)

IC50 (TYK2 pseudokinase domain) [nM],IC50 (TYK2/JAK1) [nM],Structure (SMILES)
59,< 50,CC(=O)Nc1cc2c(-c3cc(OCC(C)C)c(=O)n([C@@H](C)C(F)(F)F)n3)cn([C@H]3C[C@@H](C#N)C3)c2cn1
20,< 50,CC(C)COc1cc(-c2cn(C)c3cnc(NC(N)=O)cc23)nn(C(C)C)c1=O
37,< 50,CCC1(n2nc(-c3cn(C)c4cnc(NC(N)=O)cc34)cc(C)c2=O)CCOC1 (centres unmarked)
68,50 to 500,CC(=O)Nc1cc2c(-c3cc(OCC(C)(F)F)c(=O)n([C@@H](C)C(F)(F)F)n3)cn(CCN3CCOCC3)c2cn1
36,< 50,[2H]C([2H])([2H])C(=O)Nc1cc2c(-c3cc(N4CC(OC)C4)c(=O)n([C@@H](C)C(F)(F)F)n3)cn(C)c2cn1
33,< 50,COCC1CN(c2cc(-c3cn(C)c4cnc(NC(C)=O)cc34)nn(C3CCC3)c2=O)C1
40,> 500,CC(=O)Nc1cc2c(-c3cc(OCC(F)F)c(=O)n([C@@H](C)C(F)(F)F)n3)c[nH]c2cn1
68,< 50,CC(=O)Nc1cc2c(-c3cc(OCC4CCC4)c(=O)n(C(C)C(F)(F)F)n3)cn(C)c2cn1 (centres unmarked)
41,< 50,CCn1cc(-c2cc(OCCCF)c(=O)n([C@@H](C)C(F)(F)F)n2)c2cc(NC(C)=O)ncc21
14,< 50,CC(=O)Nc1cc2c(-c3cc(OCC(C)C)c(=O)n(C4CCC4)n3)cn(C)c2cn1
46,50 to 500,CC(=O)Nc1cc2c(-c3cc(OCC(C)(F)F)c(=O)n([C@@H](C)C(F)(F)F)n3)cn(CCC#N)c2cn1
32,< 50,COC1CN(c2cc(-c3cn(C)c4cnc(NC(C)=O)cc34)nn(C3(C)CCCC3)c2=O)C1
27,< 50,CCC1(n2nc(-c3cn(C)c4cnc(NC(C)=O)cc34)cc(OCC(C)C)c2=O)CCC1
121,> 500,COCC(C)(C)n1nc(-c2cn(C)c3cnc(NC(C)=O)cc23)ccc1=O
83,< 50,COC1CN(c2cc(-c3cn(C)c4cnc(NC(C)=O)cc34)nn(C3(C)CCC3)c2=O)C1
40,,CC(=O)Nc1cc2c(-c3cc(OCC(C)(F)F)c(=O)n([C@@H](C)C(F)(F)F)n3)cn(CC3COC3)c2cn1
73,< 50,CC(=O)Nc1cc2c(-c3cc(N4CCC5(COC5)C4)c(=O)n([C@@H](C)C(F)(F)F)n3)cn(C3CC3)c2cn1
122,50 to 500,CO[C@H]1CCN(c2cc(-c3cn(C)c4cnc(NC(C)=O)cc34)nn(C3(C)CCC3)c2=O)C1
78,< 50,COC1CN(c2cc(-c3cn(C4CC4)c4cnc(NC(C)=O)cc34)nn(C(C)C(F)(F)F)c2=O)C1 (centres unmarked)
38,< 50,CC(=O)Nc1cc2c(-c3cc(C)c(=O)n(C4(C)CCOC4)n3)cn(C3CC(C#N)C3)c2cn1 (centres unmarked)

IC50 (TYK2 pseudokinase domain) [nM],IC50 (TYK2/JAK1) [nM],Structure (SMILES)
19,< 50,CC(=O)Nc1cc2c(-c3cc(OCCC(C)C)c(=O)n(C(C)C)n3)cn(C)c2cn1
89,< 50,COC1CN(c2cc(-c3cn(C)c4cnc(NC(C)=O)cc34)nn(C(C)C(F)(F)F)c2=O)C1 (centres unmarked)
26,50 to 500,CC(=O)Nc1cc2c(-c3cc(OCC4COC4)c(=O)n(C4(C)CCC4)n3)cn(C)c2cn1
30,50 to 500,COC1CN(c2cc(-c3cn(C)c4cnc(NC(C)=O)cc34)nn(C(C)(C)C)c2=O)C1
53,< 50,CC(=O)Nc1cc2c(-c3cc(OCC(C)(F)F)c(=O)n([C@@H](C)C(F)(F)F)n3)cn(C3C=C(F)C3)c2cn1 (some centres unmarked)
21,50 to 500,CC(=O)Nc1cc2c(-c3cc(OCC(F)(F)F)c(=O)n(C(C)C)n3)cn(C)c2cn1
60,,Cn1cc(-c2ccc(=O)n(C3(C)CCOC3)n2)c2cc(NC(N)=O)ncc21 (centres unmarked)
60,50 to 500,CC(=O)Nc1cc2c(-c3cc(OCC(C)(F)F)c(=O)n([C@@H](C)C(F)(F)F)n3)cn(C3CC(=O)C3)c2cn1
105,50 to 500,CC(=O)Nc1cc2c(-c3cc(OCC(C)(F)F)c(=O)n([C@@H](C)C(F)(F)F)n3)cn(CC3(C)COC3)c2cn1
91,,Cn1cc(-c2ccc(=O)n(C3(C)CCOC3)c2)c2cc(NC(N)=O)ncc21 (centres unmarked)
20,< 50,CCC1(n2nc(-c3cn(C4CC(C#N)C4)c4cnc(NC(C)=O)cc34)cc(C)c2=O)CCOC1 (centres unmarked)
32,< 50,CC(=O)Nc1cc2c(-c3cc(OCCCF)c(=O)n([C@@H](C)C(F)(F)F)n3)cn(C)c2cn1
35,< 50,CC(=O)Nc1cc2c(-c3cc(N4CC(OC(C)C)C4)c(=O)n([C@@H](C)C(F)(F)F)n3)cn(C3CC3)c2cn1
46,50 to 500,CC(=O)Nc1cc2c(-c3cc(OCC(C)(F)F)c(=O)n([C@@H](C)C(F)(F)F)n3)cn(C(=O)C3CC3)c2cn1
30,50 to 500,CC(=O)Nc1cc2c(-c3cc(N4CC5(COC5)C4)c(=O)n(C4(C)CCC4)n3)cn(C)c2cn1
154,> 500,CC(=O)Nc1cc2c(-c3cc(OCC(C)C)c(=O)n([C@H](C)C(F)(F)F)n3)cn(C)c2cn1
149,,COCCn1nc(-c2cn(C)c3cnc(NC(C)=O)cc23)cc(N2CC(OC)C2)c1=O
111,,CC(=O)Nc1cc2c(-c3ccc(=O)n(C4(C)CCOC4)c3)cn(C3CC(C#N)C3)c2cn1 (centres unmarked)
182,,CC(=O)Nc1cc2c(-c3ccc(=O)n(C4(C)COC4)n3)cn(C)c2cn1
